Measurements from PubChem BioAssay AID1224905 (ICCB-Longwood Screening Facility, Harvard Medical School, 2016).
The campaign covered roughly 210,000 compounds. About 880 (0.42%) were called active. This is one part of a sample in which actives are shown more often than they occur.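 How the source made its calls: active means replicate mean at 85% of control or lower with very high polarization wells dropped (limit read from the data); inactive means the rest.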

Protein sequences, listed by entry. Tags and fused reporters are not part of them.
UniProt P08753, whole entry, looked up: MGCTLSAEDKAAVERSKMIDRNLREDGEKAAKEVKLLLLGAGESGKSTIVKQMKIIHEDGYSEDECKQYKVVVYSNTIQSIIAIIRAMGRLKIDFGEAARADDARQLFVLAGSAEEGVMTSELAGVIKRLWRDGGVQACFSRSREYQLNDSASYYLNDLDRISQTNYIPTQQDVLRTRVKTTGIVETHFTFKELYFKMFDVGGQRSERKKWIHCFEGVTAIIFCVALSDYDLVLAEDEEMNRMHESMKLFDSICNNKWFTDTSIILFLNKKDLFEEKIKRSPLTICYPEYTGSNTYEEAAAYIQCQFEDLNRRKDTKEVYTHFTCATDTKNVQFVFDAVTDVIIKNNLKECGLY

Target: Guanine nucleotide-binding protein G(i) subunit alpha-3 (Rattus norvegicus) (UniProt P08753)
Assay: inhibitors of GIV peptide binding to Galpha-i3, primary screen, biochemical, fluorescence polarization, FITC-GIV GBA peptide, rat Galphai3 (AID 1224905)
Details: 90 min, stronger effect = lower value

Row | Structure (SMILES) | percent of control (FP)
1 | CN1CCc2c(c(S)[nH]c(=S)c2C#N)C1 | 35% (active)
2 | O=C(NCCN1CCOCC1)c1cc2cccnc2n(Cc2ccccc2)c1=O | 108% [scaled: aluminum fluoride 0%, vehicle 100%] (inactive)
3 | CCOC(=O)C1CC2CCCN2C12C(=O)N(Cc1ccccc1)c1ccccc12 (stereo not given) | 101% (inactive)
4 | O=c1c2ccccc2nc(COc2ccc(Cl)cc2)n1-c1ccc(Br)cn1 | 98.1% (inactive)
5 | Cc1nc2nc(-c3ccc(C(C)(C)C)cc3)nn2c(C)c1CC(=O)N1CCN(CCO)CC1 | 102% [scaled: aluminum fluoride 0%, vehicle 100%] (inactive)
